High-throughput results as filed in PubChem.
Only some compounds are listed: those with a hit (about 1.8% of all), similar ones and a draw of the others.
RAD54 inh = RAD54 (human) branch migration inhibition; Q92698; 360,000 tested, 0.14% active; inhibition, % at 10.4 µM; RAD54 Holliday junction branch migration, FAM/BHQ fluorescence;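 active means mean normalized replicate activity at least 40 and at least half of replicates scoring 40 or more; inconclusive means only one of the two criteria met; inactive means mean below 40 and under half of replicates reaching 40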;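 further: 0% = median of neutral control wells and 100% = median of positive control wells; inhibitors cause a drop in the FAM fluorescence signal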
Yeast UUG start = yeast start codon fidelity modulation | S. cerevisiae UUG-firefly luciferase reporter, luminescence/redox ratio | activity score, % at 18.7 µM | 0.13% of 350,000 active | AID 602363;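 active means replicate mean at a twofold rise or more, about +100% in these data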;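 further: firefly luciferase made from a UUG start codon reports start codon fidelity; reporter light over untreated wells divided by growth signal over untreated wells; some hits fall short of that in this replicate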
SIRT5 block = inhibitors of human sirtuin-5 desuccinylase; Q9NXA8; Purified SirT5, succinyl-peptide AMC, trypsin-coupled fluorescence; inhibition, % at 15 µM; 330,000 tested, 1.1% active; AID 652115; in the data active means inhibition above about 15%; inconclusive means no clear call, values can overlap the other calls
E-sel inducer = E-selectin induction on HUVECs; P16581; HUVEC E-selectin immunofluorescence imaging; normalized: neutral wells 0, TNF-alpha wells 100; activation, % at 7.58 µM; 260,000 tested, 0.37% active;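 active means mean E-selectin-positive cell signal at least 10% of the positive control, reached in at least 60% of replicates, without over 20% cell loss; inconclusive means no rule given, readout overlaps actives, possibly toxicity-flagged; inactive means the rest, including those meeting only one limit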
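Test system: HUVEC | Signal: Immunofluorescence imaging | Read-out: Percent E-selectin-positive cells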
RAD52 inh = blocks human RAD52 DNA annealing; P43351; recombinant RAD52 DNA annealing, FRET fluorescence; inhibition, % at 18.7 µM; 360,000 tested, 0.46% active; AID 651710;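 active means every replicate showing at least 50% inhibition; inconclusive means mean inhibition at least 50% but not in every replicate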
AF4-AF9 inh = MLL-AF4/AF9 protein interaction inhibition; AlphaScreen, biotin-AF4 peptide binding to FLAG-AF9; inhibition, % at 10 µM; 350,000 tested, 0.47% active; AID 651704;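 active means every replicate reaching a set inhibition limit, whatever the replicate mean, cut at about 25% in these data; inconclusive means mean inhibition reaches that limit but some replicates miss it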;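 further: 0% = plate neutral control median and 100% = total signal loss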
The depositor's hits bear a star; ? = inconclusive; . = no result.

Assay codes – A = RAD54 inh; B = Yeast UUG start; C = SIRT5 block; D = E-sel inducer; E = RAD52 inh; F = AF4-AF9 inh
CN(c1ccc(O)cc1)c1nc(O)c(C2=c3ccccc3=NC2=O)s1
  A: . | B: . | C: 20* | D: 0 | E: 0 | F: -3

O=C1N=c2ccccc2=C1c1sc(=S)n(-c2ccc(O)cc2)c1O
  A: -8 | B: -21 | C: -9 | D: 2 | E: -20 | F: -7

C[C@H](NC(=O)C[C@H]1CC[C@@H](NC(=O)CN2CCOCC2)[C@H](CO)O1)c1ccccc1
  A: 1 | B: -18 | C: 2 | D: 0 | E: 5 | F: -2

Cc1cccc(C)c1NC(=O)C1=C(O)c2sccc2N(C)S1(=O)=O
  A: . | B: . | C: 21* | D: . | E: -14 | F: -2

CN1c2ccsc2C(O)=C(C(=O)Nc2ccccc2)S1(=O)=O
  A: -3 | B: -13 | C: . | D: . | E: . | F: .

CS(=O)(=O)N(CCC#N)Cc1ccco1
  A: . | B: . | C: 16* | D: -1 | E: -12 | F: -1

C[C@H]1CN([C@@H](C)CO)C(=O)c2cc(C3=CCCCC3)cnc2O[C@@H]1CN(C)Cc1ccccc1F
  A: 3 | B: -15 | C: 4 | D: 0 | E: 7 | F: 13

CC(C)NC(=O)N(C)C[C@H]1Oc2c(NS(=O)(=O)c3ccc(F)cc3)cccc2C(=O)N([C@H](C)CO)C[C@H]1C
  A: 2 | B: -4 | C: -7 | D: 0 | E: -3 | F: 1

C[C@@H]1CCCCO[C@H](CN(C)C(=O)NC2CCCCC2)[C@H](C)CN([C@H](C)CO)C(=O)c2cc(NS(=O)(=O)c3ccccc3)ccc2O1
  A: 5 | B: 21 | C: 4 | D: 0 | E: -4 | F: 1

O=C1CC(N2CCSCC2)C(=O)N1c1cccc(Br)c1 (stereo unspecified)
  A: -6 | B: -13 | C: -1 | D: 43* | E: -6 | F: -2

CC(C)(C)c1ccc(S(=O)(=O)NC(=O)C2(C)CCN2C(=O)CC2CCCCC2)cc1 (stereo unspecified)
  A: -3 | B: 7 | C: 0 | D: -1 | E: -3 | F: 0

CC(C)(C)c1ccc(S(=O)(=O)NC(=O)C2(C)CCN2C(=O)C2CCCCC2)cc1 (stereo unspecified)
  A: -17 | B: 3 | C: 19* | D: 0 | E: -2 | F: 0

COc1ccc2c3c([nH]c2c1)[C@H](CO)N(C(=O)c1cccc(F)c1)CC31CN(C(=O)c2cccc(F)c2)C1
  A: . | B: . | C: -2 | D: -1 | E: -15 | F: 3

Cc1cn(CC(=O)NCCCn2ccnc2)c(=O)[nH]c1=O
  A: -9 | B: -20 | C: 15* | D: 2 | E: -5 | F: -3

Cc1cn(CC(=O)NCc2ccccc2)c(=O)[nH]c1=O
  A: -2 | B: -18 | C: 20* | D: 2 | E: -4 | F: -9

C[C@H]1CN([C@@H](C)CO)C(=O)Cc2cc(NC(=O)C3CC3)ccc2O[C@@H]1CN(C)CC1CC1
  A: -3 | B: -2 | C: -4 | D: 0 | E: 11 | F: -5

CCOC(=O)C(C)Oc1cc(Cl)c(C=O)cc1OC (stereo unspecified)
  A: . | B: . | C: 16* | D: . | E: -11 | F: -2

Cc1c(Cc2ccc3c(c2)OCO3)sc(NC(=O)c2ccccc2)c1C(N)=O
  A: -3 | B: -9 | C: 20* | D: 0 | E: -18 | F: -5

Cc1nc(NC(=O)c2ccccc2)sc1Cc1ccc2c(c1)OCO2
  A: 3 | B: -17 | C: -3 | D: . | E: -11 | F: 3

Cc1cccc(NC(=O)NNS(=O)(=O)c2ccc(F)cc2)c1
  A: . | B: . | C: -5 | D: -2 | E: 0 | F: -3

CC(=O)Nc1ccc(S(=O)(=O)NNc2cccc(C)c2)cc1
  A: -41 | B: -26 | C: -1 | D: 57* | E: -19 | F: 2

Cc1cc(C(=O)N/N=C/C=C/c2ccc(Br)cc2)n[nH]1
  A: 14 | B: -2 | C: -3 | D: 0 | E: -11 | F: -5

Cc1cc(C(=O)N/N=C/C=C/c2ccc([N+](=O)[O-])cc2)n[nH]1
  A: . | B: . | C: -2 | D: 54* | E: -24 | F: 0

COc1ccc(N/C(N)=N/c2nc(C)cc(C)n2)c(OC)c1
  A: . | B: . | C: 1 | D: . | E: 9 | F: 1

COc1cc(N/C(N)=N/c2nc(C)cc(C)n2)cc(OC)c1
  A: 10 | B: -17 | C: -8 | D: 0 | E: 81* | F: 6

C[C@@H]1CCCCO[C@H](CN(C)C(=O)Nc2cccc3ccccc23)[C@H](C)CN([C@@H](C)CO)C(=O)c2cc(N(C)C)ccc2O1
  A: -7 | B: 12 | C: 1 | D: 0 | E: -3 | F: ?

COc1ccc2oc(C(=O)NCCc3ccccc3)c(C)c2c1
  A: 7 | B: -77 | C: -3 | D: 1 | E: -17 | F: -4

COc1ccc2oc(C(=O)NCC(c3ccco3)N(C)C)c(C)c2c1 (stereo unspecified)
  A: -19 | B: 7 | C: -4 | D: . | E: -22 | F: 35*

COc1ccc(-c2ccc(C3[C@H]4CNC[C@@H]3N4S(=O)(=O)c3cccc(C)c3)cc2)cc1 (stereo partly specified)
  A: . | B: . | C: 5 | D: 0 | E: 43 | F: -2

Laid out differently: results already given
C[C@@H]1CCCCO[C@H](CN(C)C(=O)Nc2cccc3ccccc23)[C@H](C)CN([C@@H](C)CO)C(=O)c2cc(N(C)C)ccc2O1
- RAD54 inh: -7
- Yeast UUG start: 12
- SIRT5 block: 1
- E-sel inducer: 0
- RAD52 inh: -3
- AF4-AF9 inh: ?
COc1ccc2oc(C(=O)NCCc3ccccc3)c(C)c2c1
- RAD54 inh: 7
- Yeast UUG start: -77
- SIRT5 block: -3
- E-sel inducer: 1
- RAD52 inh: -17
- AF4-AF9 inh: -4
